Experiments:
[1] = test system: cynomolgus monkeys with sustained elevated IOP; experiment: IOP lowering in conscious monkeys, eyes made hypertensive by argon laser photocoagulation; type: in vivo, cynomolgus monkey; settings: Macaca fascicularis, topical, 6 h, ocular dose 0.1%, single 50 μl eye drop, up to 6 hours; read-out: Maximum % Decrease From Pretreatment Levels Hypertensive Eye (IOP)
Text: Measurements of IOP were made in fully conscious female cynomolgus monkeys weighing 3-4 kg with sustained elevated IOP that was produced in the right eye by argon laser photocoagulation of the trabecular meshwork. Animals were usable for experiments 2 months following surgery. During the experiments, monkeys sat in specially designed chairs (Primate Products, San Francisco), and were fed orange juice and fruit as needed. A 30R model Digilab pneumatonometer (Alcon, Tex.) was used to measure IOP.
Twenty five μl of an anesthetic (proparacaine) was topically applied to each monkey before IOP measurements to minimize ocular discomfort due to tonometry. Two baseline measurements were made prior to instillation of the drugs, followed by periodic measurements up to 6 hours post-instillation. The test compounds were administered unilaterally as a single 50 μl eye drop; the contralateral eyes received an equal volume of saline.

Chains of the proteins cited; added tags and fusions are not shown.
UniProt P19328, whole entry: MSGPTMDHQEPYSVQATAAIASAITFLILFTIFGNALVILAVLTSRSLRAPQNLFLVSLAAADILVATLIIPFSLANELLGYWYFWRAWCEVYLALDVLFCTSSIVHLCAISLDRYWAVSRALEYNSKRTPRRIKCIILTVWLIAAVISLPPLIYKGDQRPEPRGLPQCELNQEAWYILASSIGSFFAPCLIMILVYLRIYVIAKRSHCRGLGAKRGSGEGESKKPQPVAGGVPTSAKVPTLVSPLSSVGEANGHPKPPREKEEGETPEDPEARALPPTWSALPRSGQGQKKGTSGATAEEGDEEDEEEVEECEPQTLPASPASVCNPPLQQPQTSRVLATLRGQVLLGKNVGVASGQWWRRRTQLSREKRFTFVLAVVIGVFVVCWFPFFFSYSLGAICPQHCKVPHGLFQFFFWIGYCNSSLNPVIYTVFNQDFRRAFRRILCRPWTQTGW

[2] = target: T1, rat α2B (RNG gene) receptor (Rattus norvegicus, UniProt P19328); experiment: RSAT (Receptor Selection and Amplification Technology) assay, alpha 2B; type: cell-based; settings: ratio of maximal effect to that of standard full agonist oxymetazoline
T1 construct: expressed in transfected cells; host or cells: NIH-3T3 cells, calcium phosphate cotransfection
Text: This preferential activity can be determined in a variety of functional assays such as Cyclic AMP Production, Shimizu et al, J. Neurochem. […] In the study below, the RSAT assay on cells that have been transiently transfected with the human α2A (c10 gene), rat α2B (RNG gene) and human α2C (c4 gene) receptors was used.
The assay measures a receptor-mediated loss of contact inhibition that results in selective proliferation of receptor-containing cells in a mixed population of confluent cells. The increase in cell number is assessed with an appropriate transfected marker gene such as b-galactosidase, the activity of which can be easily measured in a 96-well format. Receptors that activate the G protein, Gq, elicit this response. Alpha2 receptors, which normally couple to Gi, activate the RSAT response when coexpressed with a hybrid Gq protein that has a Gi receptor recognition domain, called Gq/i5^2.
NIH-3T3 cells are plated at a density of 2×10^6 cells in 15 cm dishes and maintained in Dulbecco's modified Eagle's medium supplemented with 10% calf serum. One day later, cells are cotransfected by calcium phosphate precipitation with mammalian expression plasmids encoding p-SV-b-galactosidase (5-10 mg), receptor (1-2 mg) and G protein (1-2 mg). 40 mg salmon sperm DNA may also be included in the transfection mixture. Fresh media is added on the following day and 1-2 days later, cells are harvested and frozen in 50 assay aliquots. […] After washing with phosphate-buffered saline, b-galactosidase enzyme activity is determined by adding 200 ml of the chromogenic substrate (consisting of 3.5 mM o-nitrophenyl-b-D-galactopyranoside and 0.5% nonidet P-40 in phosphate buffered saline), incubating overnight at 30° and measuring optical density at 420 nm. […] The EC50 and maximal effect of each drug at each alpha2 receptor is determined. The efficacy or intrinsic activity is calculated as a ratio of the maximal effect of the drug to the maximal effect of a standard full agonist for each receptor subtype.

SMILES | inhibition in vivo at 0.1 % [1] [%] | Intrinsic Activity Relative to Oxymetazoline, Alpha 2B [2]
Clc1cccc(Cl)c1N=C1NCCN1 [clonidine, reference compound] | 25 ± 4 | 0.75
Brc1c(NC2=NCCN2)ccc2nccnc12 [brimonidine, reference compound] | – | 0.93
Cc1cc(C(C)(C)C)c(O)c(C)c1CC1=NCCN1 [oxymetazoline, reference compound] | – | 1.0

Reference: patent US6841684B2, “Imidiazoles having reduced side effects” (Allergan, Inc., priority 1997, dated 2005)
